Assay results taken from patent publication US7947466B2 (priority 2003, dated 2011).
Read-outs that look alike come from different tables or passages of the source.

The chains behind the UniProt entries cited, without tags or fusion partners. Residues count along the entry.
UniProt P58154, 20-229 limits assumed: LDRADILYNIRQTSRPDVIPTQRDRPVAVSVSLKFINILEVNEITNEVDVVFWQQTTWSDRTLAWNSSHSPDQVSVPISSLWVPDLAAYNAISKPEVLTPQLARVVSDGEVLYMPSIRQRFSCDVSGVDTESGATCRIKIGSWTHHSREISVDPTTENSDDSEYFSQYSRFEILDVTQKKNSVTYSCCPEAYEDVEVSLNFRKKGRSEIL

Key:
[1] = target: T1, Lymnaea AChBP (Lymnaea stagnalis, UniProt P58154); experiment: biochemical; assay type: binding
[2] = target: T1, Lymnaea AChBP; conditions: read-out: Lymnaea Kd; cited from earlier work

For `CN1CCCC1c1cccnc1` (single isomer, unassigned; (-)) [(−)-Nicotine], the Kd [1] is given as 38 nM and the Kd [2] is given as 86 nM.
